{
  "sequences": {"note": "By UniProt entry, the sequences of proteins in these tests, tags left out. Residues count along the entry.", "UniProt O60755, 1-299 limits assumed": "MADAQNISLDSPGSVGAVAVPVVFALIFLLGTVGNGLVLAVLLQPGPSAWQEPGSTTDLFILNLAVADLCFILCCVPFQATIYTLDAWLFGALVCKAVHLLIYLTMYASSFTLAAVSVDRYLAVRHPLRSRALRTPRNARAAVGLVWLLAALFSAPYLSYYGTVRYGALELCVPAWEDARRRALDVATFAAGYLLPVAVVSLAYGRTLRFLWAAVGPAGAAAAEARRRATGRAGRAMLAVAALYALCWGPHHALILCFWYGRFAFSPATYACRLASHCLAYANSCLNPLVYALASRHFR"},
  "source": "PubChem BioAssay AID651719",
  "about": "(The Scripps Research Institute Molecular Screening Center, 2012)",
  "note": "Only a part is listed here, and it is no random draw. The source made the active and inactive calls.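 How the source made its calls: active means inhibition above the screen-wide average plus 3 SD (cut at about 13% in these data); inactive means the rest.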",
  "data": [
    {"target": "Galanin receptor type 3 (Homo sapiens) (UniProt O60755)", "assay": "GalR3 antagonists in HEK293 cells, primary screen, cell-based, fluorescence readout (AID 651719);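 further: forskolin and galanin both at EC90 stimulate the cells; cAMP rise reported by CNG channel membrane potential dye signal; 0% = forskolin plus galanin with DMSO and 100% = forskolin alone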", "details": "HEK293 GalR3-CNG cAMP membrane potential fluorescence; at 3 µM; hits give high values; galR3 body fused to GalR1 C-terminus", "values": [
      {"compound": "O=[N+]([O-])c1cc([N+](=O)[O-])c(Nc2nnnn2CCO)c([N+](=O)[O-])c1", "inhibition": "inactive: -8.27%"},
      {"compound": "CCOC(=O)C(CC)C1=NC(C)(C)Cc2ccccc21.O=[N+]([O-])c1cc([N+](=O)[O-])c(O)c([N+](=O)[O-])c1", "note": "(configuration not stated)", "inhibition": "inactive: -2.02%"},
      {"compound": "COc1ccccc1OP(C)(=O)Nc1c(C)cccc1C", "note": "(configuration not stated)", "inhibition": "inactive: 1.59%"},
      {"compound": "CN1CCCCC1COC(=O)C1(O)c2ccccc2CCc2ccccc21", "note": "(configuration not stated)", "inhibition": "inactive: -6.55%"},
      {"compound": "COc1ccc(-c2ccccn2)cc1.O=[N+]([O-])c1cc([N+](=O)[O-])c(O)c([N+](=O)[O-])c1", "inhibition": "inactive: -7.22%"},
      {"compound": "CP(=O)(Nc1ccc(SC(F)(F)F)cc1)Oc1ccccc1", "note": "(configuration not stated)", "inhibition": "inactive: -12.5%"},
      {"compound": "CCCOc1ccc(NP(C)(=O)Oc2ccc(Cl)cc2)cc1", "note": "(configuration not stated)", "inhibition": "inactive: -5.55%"},
      {"compound": "O=[N+]([O-])c1cc([N+](=O)[O-])c(-n2nnc3ccccc32)c([N+](=O)[O-])c1", "inhibition": "inactive: 2.92%"},
      {"compound": "CN(Cc1cccnc1)C(=O)COc1ccc(Cl)c(Cl)c1.O=[N+]([O-])c1cc([N+](=O)[O-])c(O)c([N+](=O)[O-])c1", "inhibition": "inactive: -7.94%"},
      {"compound": "O=[N+]([O-])c1cc([N+](=O)[O-])c(-c2cnn(-c3ccccc3)c2)c([N+](=O)[O-])c1", "inhibition": "inactive: 1.49%"},
      {"compound": "Cc1nc2ccc3ccccc3c2s1.O=[N+]([O-])c1cc([N+](=O)[O-])c(O)c([N+](=O)[O-])c1", "inhibition": "inactive: 1.38%"},
      {"compound": "COc1ccccc1OP(C)(=O)Nc1cccc(Br)c1", "note": "(configuration not stated)", "inhibition": "inactive: -0.56%"},
      {"compound": "CCOC(=O)c1ccc(NP(C)(=O)Oc2cc(C)cc(C)c2)cc1", "note": "(configuration not stated)", "inhibition": "inactive: -4.47%"},
      {"compound": "Cc1cc(C)cc(OP(C)(=O)Nc2ccc(C)cc2C)c1", "note": "(configuration not stated)", "inhibition": "inactive: -1.66%"},
      {"compound": "Cc1ccc(C)c(NP(C)(=O)Oc2ccccc2)c1", "note": "(configuration not stated)", "inhibition": "inactive: -2.56%"},
      {"compound": "CP(=O)(Nc1cccc(Br)c1)Oc1ccccc1", "note": "(configuration not stated)", "inhibition": "inactive: -2.98%"},
      {"compound": "Cc1cc(C)cc(OP(C)(=O)Nc2ccccn2)c1", "note": "(configuration not stated)", "inhibition": "inactive: 0.5%"},
      {"compound": "O=C(O)c1cccc(Nc2c([N+](=O)[O-])cc([N+](=O)[O-])cc2[N+](=O)[O-])c1", "inhibition": "inactive: -5.14%"},
      {"compound": "CC1=NCCc2c1[nH]c1ccccc21.O=[N+]([O-])c1cc([N+](=O)[O-])c(O)c([N+](=O)[O-])c1", "inhibition": "inactive: -7.69%"},
      {"compound": "O=[N+]([O-])c1cc([N+](=O)[O-])c(Nc2cccnc2)c([N+](=O)[O-])c1", "inhibition": "inactive: -3.1%"},
      {"compound": "O=[N+]([O-])c1ccc2c(c1)C=Nc1ccccc1O2", "inhibition": "inactive: -6.91%"},
      {"compound": "CC(C)(C)c1ccc(OP(C)(=O)Nc2ccc(SC(F)(F)F)cc2)cc1", "note": "(configuration not stated)", "inhibition": "inactive: -2.7%"},
      {"compound": "Cc1cccc(C)c1OP(C)(N)=O", "note": "(configuration not stated)", "inhibition": "inactive: 0.73%"},
      {"compound": "COc1ccccc1OP(C)(=O)Nc1ccc(C)cc1", "note": "(configuration not stated)", "inhibition": "inactive: 0.12%"},
      {"compound": "Cc1ccc(NP(C)(=O)Oc2ccccc2)c(C)c1", "note": "(configuration not stated)", "inhibition": "inactive: -5.19%"},
      {"compound": "CCOC(=O)c1ccc(NP(C)(=O)Oc2ccccc2)cc1", "note": "(configuration not stated)", "inhibition": "inactive: 1.66%"},
      {"compound": "Cc1cc(C)cc(OP(C)(N)=O)c1", "note": "(configuration not stated)", "inhibition": "inactive: -5.58%"},
      {"compound": "COc1ccccc1OP(C)(=O)Nc1cc(Cl)ccc1C", "note": "(configuration not stated)", "inhibition": "inactive: 0.13%"},
      {"compound": "COc1ccc(OP(C)(=O)Nc2cccc(F)c2)cc1", "note": "(configuration not stated)", "inhibition": "inactive: -8.01%"},
      {"compound": "CCN(CC)CCCOC(=O)C(O)(c1ccccc1)c1ccccc1", "inhibition": "active: 20%"},
      {"compound": "COc1ccccc1-c1ccccn1.O=[N+]([O-])c1cc([N+](=O)[O-])c(O)c([N+](=O)[O-])c1", "inhibition": "inactive: -6.2%"},
      {"compound": "Cc1cccc(C)c1OP(C)(=O)Nc1ccc(SC(F)(F)F)cc1", "note": "(configuration not stated)", "inhibition": "inactive: -3.38%"},
      {"compound": "CP(=O)(Nc1ccc(SC(F)(F)F)cc1)Oc1ccc(Cl)cc1", "note": "(configuration not stated)", "inhibition": "inactive: -6.8%"},
      {"compound": "CP(=O)(Oc1ccccc1)OC(c1ccccc1)C(F)(F)F", "note": "(configuration not stated)", "inhibition": "inactive: -8.43%"},
      {"compound": "CCc1ccc(OP(C)(=O)N2CCN(c3ccc([N+](=O)[O-])cc3)CC2)cc1", "note": "(configuration not stated)", "inhibition": "inactive: -5.67%"},
      {"compound": "CP(=O)(NC(=O)Nc1ccccc1)Oc1ccccc1", "note": "(configuration not stated)", "inhibition": "inactive: -0.79%"},
      {"compound": "Cc1cc(C)cc(OP(C)(=O)Nc2ccc(SC(F)(F)F)cc2)c1", "note": "(configuration not stated)", "inhibition": "inactive: 0.4%"},
      {"compound": "CCOC(=O)c1ccc(NP(C)(=O)Oc2ccc(OC)cc2)cc1", "note": "(configuration not stated)", "inhibition": "inactive: 0.73%"},
      {"compound": "O=[N+]([O-])c1cc([N+](=O)[O-])c(O)c([N+](=O)[O-])c1.c1ccc(Oc2ccncc2)cc1", "inhibition": "inactive: -1.23%"},
      {"compound": "CCOP(C)(=S)SCC(=O)NC(C)C(=O)O", "note": "(configuration not stated)", "inhibition": "inactive: -1.6%"},
      {"compound": "CP(=O)(Nc1ccccn1)Oc1ccc(Cl)cc1", "note": "(configuration not stated)", "inhibition": "inactive: -3.93%"},
      {"compound": "CP(=S)(Nn1cnnc1)Oc1ccccc1", "note": "(configuration not stated)", "inhibition": "inactive: -1.93%"},
      {"compound": "CP(=O)(Nc1ccccc1Br)Oc1ccccc1", "note": "(configuration not stated)", "inhibition": "inactive: 0.71%"},
      {"compound": "COc1ccccc1OP(C)(=O)Nc1ccccc1", "note": "(configuration not stated)", "inhibition": "inactive: -3.71%"},
      {"compound": "Nc1ccc2c(ccc3cccnc32)n1.O=[N+]([O-])c1cc([N+](=O)[O-])c(O)c([N+](=O)[O-])c1", "inhibition": "inactive: -3.99%"},
      {"compound": "CCOC(=O)c1ccc(NP(C)(=O)Oc2ccc(Cl)cc2)cc1", "note": "(configuration not stated)", "inhibition": "inactive: -0.57%"},
      {"compound": "CP(=O)(OC12CC3CC(CC(C3)C1)C2)OC12CC3CC(CC(C3)C1)C2", "inhibition": "inactive: -4.64%"},
      {"compound": "CCN(CC)CC(O)COC(=O)C(O)(c1ccccc1)C1CCCCC1", "note": "(configuration not stated)", "inhibition": "inactive: 1.05%"},
      {"compound": "COc1ccc(OP(C)(=O)Nc2ccc(Br)cc2)cc1", "note": "(configuration not stated)", "inhibition": "inactive: -9.46%"},
      {"compound": "COc1ccccc1OP(C)(=O)Nc1c(C)n(C)n(-c2ccccc2)c1=O", "note": "(configuration not stated)", "inhibition": "inactive: -1.05%"},
      {"compound": "O=C(OCCCN1CCCC1)C(O)(c1ccccc1)C1CCCCC1", "note": "(configuration not stated)", "inhibition": "inactive: -7.69%"},
      {"compound": "CP(=O)(Oc1ccccc1)N1CCOC1=O", "note": "(configuration not stated)", "inhibition": "inactive: 0.74%"},
      {"compound": "CCc1ccc(OP(C)(=O)Nc2cccnc2)cc1", "note": "(configuration not stated)", "inhibition": "inactive: 1.43%"},
      {"compound": "CC(C)(C)c1ccc(OP(C)(=O)O)cc1", "inhibition": "inactive: -3.18%"},
      {"compound": "COc1ccccc1OP(C)(=O)Nc1ccccc1Br", "note": "(configuration not stated)", "inhibition": "inactive: -5.29%"},
      {"compound": "CP(=O)(Nc1ccc(Cl)cc1)Oc1ccc(F)cc1", "note": "(configuration not stated)", "inhibition": "inactive: -3.63%"},
      {"compound": "CN(C)C(=O)c1c([N+](=O)[O-])cc([N+](=O)[O-])cc1[N+](=O)[O-]", "inhibition": "inactive: -3.58%"}
    ]}
  ]
}
